From PubChem BioAssay AID720706 (Broad Institute, 2013)
This is a selection; strong and weak results do not stand in their true shares. Some of these compounds have results that are not shown, active ones among them. The source made the active and inactive calls.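 Rule for the calls: active = significant combined selectivity score with lowered wild-type GFP, culture density cut under 30%, mutant RFP and density less affected; inactive = any of these conditions unmet.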

assay: reduced GFP signal of wild-type E. coli, primary screen, bacterial rRNA inhibitor project, GFP/RFP fluorescence, OD600, single point (AID 720706); details: E. coli WT GFP vs humanized-ribosome RFP mutants, 24 h, stronger effect = lower value, DMSO median 0, no signal -100

SMILES | GFP signal change (wild-type ribosome)
CN1[C@@H]2CC[C@H]1CC(OC(=O)C(O)(c1ccccc1)c1ccccc1)C2 (stereo partly specified) | inactive: 8.56%
O=C(NCC1(N2CCCCC2)CCCCC1)c1cc([N+](=O)[O-])ccc1Cl | inactive: 3.66%
Cc1ccc(C(=O)NCC2(N3CCCCC3)CCCCC2)cc1 | inactive: 5.95%
CCN(CC)CC(C)C(C)OC(=O)C(O)(c1ccccc1)c1ccccc1 (stereo unspecified) | inactive: 14.8%
COc1cc(SC)ccc1C(=O)NCC1(N(C)C)CCCCC1 | inactive: 11.6%
Cc1ccccc1C(=O)NCC1(N2CCCCC2)CCCCC1 | inactive: 6.95%
CN(C)c1ccc(C(=O)NCC2(N(C)C)CCCCC2)cc1 | inactive: 4.64%
COc1ccc(C(=O)NCC2(N(C)C)CCCCC2)cc1 | inactive: 6.92%
Cc1cc(C(=O)NCC2(N3CCCCC3)CCCCC2)ccc1[N+](=O)[O-] | inactive: 12.2%
O=C(NCC1(N2CCCCC2)CCCCC1)c1cccc(Br)c1 | inactive: 3.6%
C=CCN1CCN(CCOC(=O)C(O)(c2ccccc2)c2ccccc2)CC1 | inactive: 24.6%
O=C(NCC1(N2CCCCC2)CCCCC1)c1cc(F)c(F)cc1Cl | inactive: 4.64%
COc1cc(C(=O)NCC2(N(C)C)CCCCC2)c([N+](=O)[O-])cc1OC | inactive: 17.6%
CN(C)C1(CNC(=O)c2ccc(Br)cc2)CCCCC1 | inactive: 12.9%
O=C(NCC1(N2CCCCC2)CCCCC1)c1cccc(Cl)c1 | inactive: 2.96%
COc1cccc(C(=O)NCC2(N3CCCCC3)CCCCC2)c1 | inactive: 7.29%
COc1ccc(Cl)cc1C(=O)NCC1(N(C)C)CCCCC1 | inactive: 6.75%
CC(C)Oc1ccc(C(=O)NCC2(N(C)C)CCCCC2)cc1 | inactive: 5.68%
O=C(OCCN1CCCC1)C(O)(c1ccccc1)c1ccccc1 | inactive: 8.6%
C=C(C)C#CC(O)(C(=O)OC1CCN(C)CC1)c1ccccc1 (stereo unspecified) | inactive: 6.83%
COc1ccc(Br)c(C(=O)NCC2(N3CCCCC3)CCCCC2)c1 | inactive: 4.83%
